Tested on: HEK293H cells
Assay: Toxic effect on the transfected cells in the GLA[A156V] assay
Type: cell-based
Conditions: concentration of 80 μM, with DGJ; FIG. 10

Structure (SMILES) | toxic effect on the cells
CN(Cc1cc(Br)cc(Br)c1N)C1CCCCC1 [Bromhexine, 2,4-dibromo-6-{[cyclohexyl(methyl)amino]methyl}aniline] | toxic effect
CN(Cc1cc(C#N)cc(Br)c1N)C1CCCCC1 [SF-55C] | toxic effect

— patent US20210228560A1 (Centogene IP GmbH, priority 2011, published 2021)
